From patent US11370781B2, “Combination therapy for treating cancer” (Epizyme, Inc., priority 2012, dated 2022)
Like-named read-outs stand apart in the source and are kept apart here.

Test system: SUDHL10 human lymphoma cells
Conditions: 28 days
Protocol: The animals were fed ad libitum water (reverse osmosis 1 ppm Cl) and NIH 31 Modified and Irradiated Lab Diet® consisting of 18.0% crude protein, 5.0% crude fat, and 5.0% crude fiber. The mice were housed on irradiated Enrich-o'cobs™ bedding in static microisolators on a 12-hour light cycle at 20-22° C. (68-72° F.) and 40-60% humidity. All procedures comply with the recommendations of the Guide for Care and Use of Laboratory Animals with respect to restraint, husbandry, surgical procedures, feed and fluid regulation, and veterinary care.
Human lymphoma cell lines were harvested during mid-log phase growth, and resuspended in PBS with 50% Matrigel™ (BD Biosciences). Each mouse received 1×10^7 cells (0.2 mL cell suspension) subcutaneously in the right flank. […] Tumor size, in mm^3, was calculated from: […]
Mice were treated at compound doses ranging from 75-600 mg/kg and at TID (3 times a day every 8 h), BID (twice a day every 12 h) or QD (once a day) schedules for various amount of days by oral gavage or injections via the intravenous, intraperitoneal or subcutaneous routes. Each dose was delivered in a volume of 0.2 mL/20 g mouse (10 mL/kg), and adjusted for the last recorded weight of individual animals. […]
Treatment efficacy was determined on the last treatment day. MTV(n), the median tumor volume for the number of animals, n, evaluable on the last day, was determined for each group. […]

CCN(c1cc(-c2ccc(CN3CCOCC3)cc2)cc(C(=O)NCc2c(C)cc(C)[nH]c2=O)c1C)C1CCOCC1 [Compound 44, N-((4,6-dimethyl-2-oxo-1,2-dihydropyridin-3-yl)methyl)-5-(ethyl (tetrahydro-2H-pyran-4-yl)amino)-4-methyl-4′-(morpholinomethyl)-[1,1′-biphenyl]-3-carboxamide]
% TGI from day 1 (Compound 44 250 mg/kg BID): 101% | % TGI from day 1 (Compound 44 500 mg/kg BID): 104%
